Reference: US11911434B2, “Stable antibody-drug conjugate, preparation method therefor, and use thereof” (GENEQUANTUM HEALTHCARE (SUZHOU) CO., LTD., priority 2014, dated 2024)

Assays:
[1] = In vivo pharmacokinetic study in rats, serum total ADC by ELISA; settings: for blood concentration as % of that detected 1 h after administration: female SD rats, 10 mg/kg i.v.
[2] = Single injection acute toxicity study in rats; assay type: in vivo, SD rats
Procedure: The acute toxicity of the candidate ADC was evaluated in rats. Female Sprague-Dawley rats were injected with high doses (60 mg/kg or more) of ADCs, and impact of drugs on the animals was then observed and analyzed, and index such as body weight, clinical signs, hematology, clinical biochemistry and histopathology were studied to evaluate the toxicity of the candidate ADC.
The drug was administered by a single injection via tail vein. The administration dose is 10 ml/kg, and the administration rate is about 1 ml/min. During the experiment, the animals were subjected to clinical inspection, and were examined for body weight, food intake, blood count, blood biochemical indices. At the end of the experiment, all animals were euthanized, anatomized and checked systematically. All major organs were weighed, organ coefficient was calculated and any visible lesions were recorded.

## ado-trastuzumab emtansine [Kadcyla]
[1]; SD rats, single tail vein injection, 1 h to 28 days
  attenuation rate / serum concentration change, GQ1001 compared with Kadcyla: no significant difference
[1]; 6 days after administration
  blood concentration as % of that detected 1 h after administration: 20.5%
[1]; 13 days after administration
  blood concentration as % of that detected 1 h after administration: 12.2%
[1]; 21 days after administration
  blood concentration as % of that detected 1 h after administration: 7.7%
[1]; 28 days after administration
  blood concentration as % of that detected 1 h after administration: 5.2%
[1]; one day after administration
  blood concentration as % of that detected 1 h after administration: 42.5%
[2]; 60 mg/kg
  ALT, AST, TBIL, GGT: increased or had a tendency to increase
  erythroid index (RBC, HGB, HCT, Retic): reduced
  white blood cell and its subgroup count: increased
[2]; 60 mg/kg, 5 days after administration (D5), n=6
  visible nasal secretions (animals affected): 2/6
[2]; 60 mg/kg, D5, n=6
  arched (animals affected): 1/6
  ears and limbs pale (animals affected): 1/6
  ears flushing (ear portions) and swelling (animals affected): 6/6
  fluffy coat (animals affected): 6/6
  weight loss (animals affected): 1/6
[2]; 60 mg/kg, necropsy, n=6
  blunt liver edge round (animals affected): 4/6
  spleen large (animals affected): 6/6
  thymus change (animals affected): 1/6
[2]; single tail vein injection, GQ1001 6 and 60 mg/kg, Kadcyla 60 mg/kg
  ALT and AST level compared with vehicle control: significantly increased; also recorded: increased significantly
[2]; single tail vein injection, GQ1001 6 and 60 mg/kg, Kadcyla 60 mg/kg (D2-D12)
  body weight change compared with vehicle control: significantly lower; also recorded: significant weight loss

“Also recorded” adds a separate entry of the source.
